# Data taken from published antibiotic growth screens (doi:10.1038/s41589-023-01349-8).
# Some of the results follow.
# Tested on: A. baumannii ATCC 17978
# Assay: relative growth (fraction of control); higher = less inhibition
# Conditions: 50 µM
row,Structure (SMILES),relative growth
1,CN(Cc1cnc2nc(N)nc(N)c2n1)c1ccc(C(=O)NC(CCC(=O)O)C(=O)O)cc1.O (centres undefined),1.07
2,O=C(O)Cn1cc2c(n1)CCCC2,1.05
3,O=c1[nH]cc(NCc2ccccc2)c(=O)[nH]1,1.03
4,c1ccc(-n2ncc3c2ncn2nnnc32)cc1,1.01
5,Nc1cc(-c2ccncc2)c[nH]c1=O,1.14
6,NC(=O)Nc1nc2ccccc2[nH]c1=O,0.929
7,COCCOC(=O)N1C(=O)[C@@]2(c3cc(C#Cc4ccc(OC)cc4)ccc31)[C@H](c1ccccc1OCCO)N1[C@H](c3ccccc3)[C@H](c3ccccc3)OC(=O)[C@H]1[C@@H]2C(=O)N1CCc2cc(OC)c(OC)cc2C1,1.06
8,Cc1ccc(/C=N/Nc2cnnc(=O)[nH]2)o1,1.03
9,O=C(NCCO)c1nc(NCCO)c2ccccc2n1,1.03
10,Cc1nnnn1CC(=O)Nc1ccc(F)cc1,0.957
11,CC1(C)C[C@H](n2[nH]c(=O)cc2N)CCO1,0.89
12,COc1cccc(C#Cc2ccc3c(c2)O[C@H](CN(C)C(=O)CN2CCOCC2)[C@H](C)CN([C@H](C)CO)S3(=O)=O)c1,0.827
13,C=CCNc1nc(C)nc(OC)n1,1.05
14,Cc1cccc(S(=O)(=O)N2C[C@H](O)COC[C@H]3O[C@@H](CC(=O)N4CCN(C)CC4)CC[C@@H]32)c1,1.16
15,Cn1c[n+](NC(=O)c2ccc(C(=O)ON3C(=O)CCC3=O)cc2)cn1,1.01
16,CCS(=O)(=O)Nc1ccc2c(c1)C(=O)N(C)C[C@H](OC)[C@H](C)CN(Cc1ccccn1)[C@H](C)CO2,0.944
17,CCCCCCCCC(=O)O,1.05
18,C[C@H]1CN([C@@H](C)CO)S(=O)(=O)c2ccc(C#CCN(C)C)cc2O[C@@H]1CN(C)Cc1ccccn1,1.04
19,COC(=O)C[C@@H]1C(C)(C)[C@H](OC(C)=O)[C@@H]2[C@@H](OC(C)=O)[C@]34O[C@@]2(O)[C@]1(C)[C@H]3CC[C@]1(C)C4=CC(=O)O[C@H]1c1ccoc1,1.02
20,S=C(c1cccs1)N1CCCC1,0.984
21,Cc1c(C)c(C)c(CSc2ccccc2N)c(C)c1C,0.989
22,Cn1cnc(CCNC(=O)C[C@H]2CC[C@H]3[C@@H](COC[C@H](O)CN3C(=O)Nc3ccc(Cl)cc3)O2)c1,0.901

row,Structure (SMILES),relative growth
1,OC[C@H]1O[C@H](OC[C@H]2O[C@@H](O)[C@H](O)[C@@H](O)[C@@H]2O)[C@H](O)[C@@H](O)[C@H]1O,1.23
2,O=C(NO)c1cccc(C(=O)N/N=C/[C@H](O)[C@@H](O)[C@@H](O)[C@H](O)CO)c1,1
3,COC(=O)Cc1cc(=O)n(-c2ccccc2)[nH]1,0.963
4,COCC(=O)N1C[C@H](C)[C@H](OC)CN(C)C(=O)c2ccc(NC(=O)c3ccc(OC)cc3)cc2OC[C@@H]1C,0.987
5,CC(=O)OC1CCC2(C)C(=CC=C3C2CCC2(C)C3CCC2C(C)/C=C/C(C)C(C)C)C1(C)C (centres undefined),1.31
6,CN(C=O)CP(=O)(O)CN1CCCCC1,1.1
7,C[C@@H]1CNC(=O)CCO1,1.15
8,CC(C)C#Cc1ccc2c(c1)O[C@H](CN(C)C(=O)c1cnccn1)[C@@H](C)CN([C@@H](C)CO)S2(=O)=O,0.92
9,CNCCCN1c2ccccc2CCc2ccccc21.Cl,0.908
10,C[C@@H]1CN([C@@H](C)CO)S(=O)(=O)c2ccc(C#C[C@@H](C)O)cc2O[C@@H]1CN(C)C(=O)C1CCCCC1,0.865
11,COC(=O)c1ccc([C@H]2C=C(C(=O)N3CCOCCOCCOCCOCC3)O[C@@H](OCCCCO)C2)cc1,1.18
12,CCC(C)[C@H]1O[C@]2(CC[C@@H]1C)C[C@@H]1C[C@@H](C/C=C(\C)[C@@H](OC3C[C@H](OC)C(O[C@H]4C[C@H](OC)[C@@H](O)[C@H](C)O4)[C@H](C)O3)[C@@H](C)/C=C/C=C3\CO[C@@H]4[C@H](O)C(C)=C[C@@H](C(=O)O1)[C@]34O)O2 (some centres undefined),0.868
13,N[C@@H]1CCCN(Cc2ccncc2)[C@H]1c1ccccc1F,1.01
14,N[C@@H](Cc1cc(I)c(Oc2cc(I)c(O)c(I)c2)c(I)c1)C(=O)[O-].[Na+],0.946
15,NC[C@H]1O[C@H](O[C@H]2C(O[C@@H]3O[C@H](CO)[C@@H](O)[C@H]3O)[C@@H](O)[C@H](N)C[C@@H]2N)[C@H](N)[C@@H](O)[C@@H]1O.O=S(=O)(O)O (some centres undefined),1.01
16,CCNC(=S)N1CCC[C@H](C(N)=O)C1,0.963
17,Cc1c(NC(C)C)c(=O)n(-c2ccccc2)n1C.Cl,1.2
18,CN1C[C@H](O)COC[C@H]2O[C@H](CC(=O)N3CCN(c4ccccc4)CC3)CC[C@@H]21,1.04
19,CC(=O)NCC(=O)O.CC(=O)NCC(=O)O.N=C(N)c1ccc(/N=N/Nc2ccc(C(=N)N)cc2)cc1,1.02
20,O=C1O[C@H](c2ccccc2)[C@H](c2ccccc2)N2[C@H]1[C@@H](C(=O)NC[C@@H](O)c1ccccc1)[C@]1(C(=O)Nc3ccc(C#CC4=CCCCC4)cc31)[C@H]2c1ccccc1OCCO,1.11
21,NC(N)=O,1.01
22,Cn1cnc(S(=O)(=O)N2C[C@H](O)COC[C@H]3O[C@@H](CC(=O)NC4Cc5ccccc5C4)CC[C@@H]32)c1,1.07
